The target of this test is huTREM1 (UniProt Q9NP99 21-205). In words: SPR; FIG. 1B. (SPR reads the build-up and loss of mass on a sensor chip optically.)

Sequences of proteins named here, by UniProt entry; tags and fusion partners are left off. Residues count along the entry.
UniProt Q9NP99, 21-205: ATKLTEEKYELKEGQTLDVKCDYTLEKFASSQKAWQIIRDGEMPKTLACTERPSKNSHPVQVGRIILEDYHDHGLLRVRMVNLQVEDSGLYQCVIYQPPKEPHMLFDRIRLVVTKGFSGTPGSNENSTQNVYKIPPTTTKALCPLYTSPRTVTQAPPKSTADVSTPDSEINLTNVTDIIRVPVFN

B1: mAb 0318-IgG1-Aba (antibody)
heavy: not shown
light: DIVLTQSPDSLAVSLGERATINCRASQSVDTFDYSFLHWYQQKPGQPPKLLIYRASNLESGVPDRFSGSGSGTDFTLTISSLQAEDVAVYYCQQSNQDPYTFGQGTKLEIKRTVAAPSVFIFPPSDEQLKSGTASVVCLLNNFYPREAKVQWKVDNALQSGNSQESVTEQDSKDSTYSLSSTLTLSKADYEKHKVYACEVTHQGLSSPVTKSFNRGEC
The Kd is the free concentration of one partner at which half of the binding sites on the other are occupied at equilibrium, for simple one-to-one binding. Higher therefore signals a looser complex. In the case of B1, the affinity, expressed as Kd, was 0.899 nM.

B2: mAb 0318-IgG1.1f (antibody)
heavy: EVQLVESGGGLVQPGGSLKLSCAASGFTFSTYAMHWVRQASGKGLEWVGRIRTKSSNYATYYAASVKGRFTISRDDSKNTAYLQMNSLKTEDTAVYYCTRDMGIRRQFAYWGQGTLVTVSSASTKGPSVFPLAPSSKSTSGGTAALGCLVKDYFPEPVTVSWNSGALTSGVHTFPAVLQSSGLYSLSSVVTVPSSSLGTQTYICNVNHKPSNTKVDKRVEPKSCDKTHTCPPCPAPEAEGAPSVFLFPPKPKDTLMISRTPEVTCVVVDVSHEDPEVKFNWYVDGVEVHNAKTKPREEQYNSTYRVVSVLTVLHQDWLNGKEYKCKVSNKALPSSIEKTISKAKGQPREPQVYTLPPSREEMTKNQVSLTCLVKGFYPSDIAVEWESNGQPENNYKTTPPVLDSDGSFFLYSKLTVDKSRWQQGNVFSCSVMHEALHNHYTQKSLSLSPG
light: DIVLTQSPDSLAVSLGERATINCRASQSVDTFDYSFLHWYQQKPGQPPKLLIYRASNLESGVPDRFSGSGSGTDFTLTISSLQAEDVAVYYCQQSNQDPYTFGQGTKLEIKRTVAAPSVFIFPPSDEQLKSGTASVVCLLNNFYPREAKVQWKVDNALQSGNSQESVTEQDSKDSTYSLSSTLTLSKADYEKHKVYACEVTHQGLSSPVTKSFNRGEC
Take B2: the Kd is 0.866 nM.

B3: mAb 0318-IgG4-Aba (antibody)
heavy: not shown
light: DIVLTQSPDSLAVSLGERATINCRASQSVDTFDYSFLHWYQQKPGQPPKLLIYRASNLESGVPDRFSGSGSGTDFTLTISSLQAEDVAVYYCQQSNQDPYTFGQGTKLEIKRTVAAPSVFIFPPSDEQLKSGTASVVCLLNNFYPREAKVQWKVDNALQSGNSQESVTEQDSKDSTYSLSSTLTLSKADYEKHKVYACEVTHQGLSSPVTKSFNRGEC
Take B3: binding was characterised by a dissociation constant (Kd) of 0.889 nM. This Kd and that of the molecule before are within 1.5-fold of each other.

(Values after patent US20240228615A1 (published 2024).)
